Measured values reported in BindingDB's records for doi:10.1016/s0024-3205(97)00885-0 (Eli Lilly, 1997).

The chains behind the UniProt entries cited, without tags or fusion partners. Where a name states a change or a piece, a line headed by the entry shows the natural chain unless it says otherwise.
UniProt P28222, whole entry: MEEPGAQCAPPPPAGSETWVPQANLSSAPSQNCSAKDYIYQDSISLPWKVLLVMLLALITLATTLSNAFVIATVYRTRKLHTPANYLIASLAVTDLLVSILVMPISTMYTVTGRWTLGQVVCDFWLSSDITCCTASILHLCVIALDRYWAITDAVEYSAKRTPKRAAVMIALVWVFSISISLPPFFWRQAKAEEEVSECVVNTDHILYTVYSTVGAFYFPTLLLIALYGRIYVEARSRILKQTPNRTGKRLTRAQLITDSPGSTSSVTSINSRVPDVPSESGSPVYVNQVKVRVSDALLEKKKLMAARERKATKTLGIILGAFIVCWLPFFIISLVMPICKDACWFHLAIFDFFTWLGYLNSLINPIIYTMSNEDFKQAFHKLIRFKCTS
UniProt P28566: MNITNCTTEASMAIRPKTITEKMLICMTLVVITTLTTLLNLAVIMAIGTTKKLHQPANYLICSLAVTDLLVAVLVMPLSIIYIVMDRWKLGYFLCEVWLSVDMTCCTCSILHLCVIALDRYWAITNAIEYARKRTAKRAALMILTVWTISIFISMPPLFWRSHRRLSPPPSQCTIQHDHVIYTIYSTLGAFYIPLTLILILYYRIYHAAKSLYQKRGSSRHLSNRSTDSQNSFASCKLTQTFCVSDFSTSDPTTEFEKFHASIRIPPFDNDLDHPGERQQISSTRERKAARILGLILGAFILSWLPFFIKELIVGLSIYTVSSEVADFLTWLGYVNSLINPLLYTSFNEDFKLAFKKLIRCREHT

Columns and labels:
[1] = target: 5-hydroxytryptamine receptor 1B (Homo sapiens, UniProt P28222)
[2] = target: 5-hydroxytryptamine receptor 1E (Homo sapiens, UniProt P28566)

Ki [1]: 549 nM
Ki [2]: 1410 nM
Compound: CN(C)C1CCc2[nH]c3ccc(NC(=O)c4ccc(F)cc4)cc3c2C1 (configuration not stated) [NSC_5311097]
